Vif-APOBEC3G blk – qHTS for Inhibitors of Vif-A3G Interactions: qHTS; DNA dC->dU-editing enzyme APOBEC-3G (Homo sapiens), Q9HC16; HeLa A3G-eYFP + Vif (tagged APOBEC3G with the HIV-1 protein that degrades it), YFP fluorescence, overnight; Potency, µM (doses to about 46.1 µM), for inactives: at the highest dose activity, negative = active, actives largely listed as inhibitors; 410,000 tested, 0.076% active; note: % is set by controls: 0 for no effect and ±100 for the full control effect; nearly all actives have a fitted effect of over 60% in size
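Read-out is eYFP fluorescence (Ex 488/Em 500-530) from Vif-expressing HeLa A3G-eYFP cells; more signal means A3G escaped Vif-mediated degradation. Cells plated overnight, compound pinned in, incubated overnight at 37 deg C.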
S-ASM inh – Inhibitors of Secretory Acid Sphingomyelinase (S-ASM): qHTS; placental ASM, HMU-PC fluorogenic substrate, 60 min; Potency, µM (top dose mostly 57.5 µM), without a hit: at the top dose activity change, negative = inhibition, actives largely listed as inhibitors; 340,000 tested, 0.006% active; AID 504937, 2011
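HMU-PC0 cleavage (9 uM final) by human placental ASM, 60 min at 37 °C following 10 min compound exposure at RT; stopped at pH 10, fluorescence Ex 386/Em 447 nm.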
Eya2 phos inh – qHTS Assay for Inhibitors of the Phosphatase Activity of Eya2. Protein phosphatase EYA2 (Homo sapiens), O00167. recombinant Eya2, OMFP fluorescence dephosphorylation (OMFP is methylfluorescein phosphate). Potency, µM (top dose mostly 76.9 µM), for the others: at the highest dose activity, negative = inhibition, hits mostly inhibitors. 330,000 tested, 0.006% active. AID 488837, 2010; note: % is set by controls: 0 for no effect and ±100 for the full control effect
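Eya2 protein (added as 0.2 uM solution) was preincubated with compound for 10 min at ambient temperature in 50 mM HEPES pH 7.5, 50 mM NaCl, 5 uM MgCl2, 0.05% BSA, 1 mM DTT. OMFP (added at 50 uM) then reacted 10 min; fluorescence read at 485/525 nm.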
Rango-impB inh – qHTS Assay for Inhibitors of Rango (Ran-regulated importin-beta cargo) - Importin beta complex formation. Potency, µM (titrated, usually from 92.2 µM), without a hit: at the top dose inhibition of complex formation. 340,000 tested, 0.031% active. Importin subunit beta-1 (Homo sapiens), Q14974. Rango CFP/YFP FRET sensor + importin beta, 45 min; calls by dose curve;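 note: 0% = DMSO wells and 100% = buffer wells lacking importin beta; nearly all actives have a fitted effect of over 15% in size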
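FRET biosensor (snurportin 1 IBB flanked by EYFP and cerulean), 50 nM, with compound 5 min, then 0.125 microM importin beta in PBS, 1 mM DTT, 0.02% Tween-20, 0.1% BSA. CFP/YFP ratio read after 45 min at room temperature; pre-read flags interference.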
Rango dissoc inh – qHTS Assay for Inhibitors of RanGTP induced Rango (Ran-regulated importin-beta cargo) - Importin beta complex dissociation. 340,000 tested, 0.071% active. Biochemical FRET Rango-importin beta, RanGTP-induced dissociation. Snurportin-1 (Homo sapiens) + GTP-binding nuclear protein Ran (Homo sapiens) + Importin …. Potency, µM (highest dose often 46.1 µM), without a hit: top-dose activity change, negative = inhibition; calls by dose curve; note: % of control where 0% means no effect; nearly all actives have a fitted effect of over 45% in size
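Rango FRET biosensor (snurportin-1 IBB flanked by N-terminal EYFP and C-terminal CFP10) at 0.1 uM, with 0.25 uM importin beta in PBS, 1mM DTT, 0.02% Tween-20, 0.1% BSA. 0.6 uM Ran, 2mM GTP and 0.2 uM RCC1 were then added for 45 min at room temperature. Inhibition read as loss of FRET rise.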
Vif-A3F inh – qHTS for Inhibitors of Vif-A3F Interactions: qHTS; AID 602313, 2012; 390,000 tested, 0.2% active; HeLa A3F-eYFP + Vif (tagged APOBEC3F with the HIV-1 protein that degrades it), YFP fluorescence increase; Potency, µM (doses to about 46.1 µM), for inactives: top-dose activity, negative = active; note: % of control where 0% means no effect; nearly all actives have a fitted effect of over 65% in size
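Fluorescence increase (Ex 488/Em 500-530) after overnight compound treatment at 37 deg C flags inhibition of Vif-driven A3F-eYFP loss in stable HeLa A3F-eYFP/Vif cells seeded overnight beforehand.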
Numbers without * were called inactive; i = inactive; u = inconclusive; x = not tested or not shown; [ ] = another dose, or the depositor's remark. Shown are actives, neighbours in structure and some others; about 0.34% of the full set was active somewhere. Unless noted, calls come from the whole dose curve; as a rule, active = well fitted curve in the direction sought with a large enough effect; inconclusive = small, poorly fitted or top-dose-only effect, or another doubt; inactive = no such curve, though single readings can be large; an effect the other way counts as inactive or inconclusive. Potency is the fitted concentration of half-maximal effect.

Amino acid sequences for entries named in this document (tags omitted).
Importin subunit beta-1 (Homo sapiens), Q14974, UniProt Q14974, whole entry, looked up: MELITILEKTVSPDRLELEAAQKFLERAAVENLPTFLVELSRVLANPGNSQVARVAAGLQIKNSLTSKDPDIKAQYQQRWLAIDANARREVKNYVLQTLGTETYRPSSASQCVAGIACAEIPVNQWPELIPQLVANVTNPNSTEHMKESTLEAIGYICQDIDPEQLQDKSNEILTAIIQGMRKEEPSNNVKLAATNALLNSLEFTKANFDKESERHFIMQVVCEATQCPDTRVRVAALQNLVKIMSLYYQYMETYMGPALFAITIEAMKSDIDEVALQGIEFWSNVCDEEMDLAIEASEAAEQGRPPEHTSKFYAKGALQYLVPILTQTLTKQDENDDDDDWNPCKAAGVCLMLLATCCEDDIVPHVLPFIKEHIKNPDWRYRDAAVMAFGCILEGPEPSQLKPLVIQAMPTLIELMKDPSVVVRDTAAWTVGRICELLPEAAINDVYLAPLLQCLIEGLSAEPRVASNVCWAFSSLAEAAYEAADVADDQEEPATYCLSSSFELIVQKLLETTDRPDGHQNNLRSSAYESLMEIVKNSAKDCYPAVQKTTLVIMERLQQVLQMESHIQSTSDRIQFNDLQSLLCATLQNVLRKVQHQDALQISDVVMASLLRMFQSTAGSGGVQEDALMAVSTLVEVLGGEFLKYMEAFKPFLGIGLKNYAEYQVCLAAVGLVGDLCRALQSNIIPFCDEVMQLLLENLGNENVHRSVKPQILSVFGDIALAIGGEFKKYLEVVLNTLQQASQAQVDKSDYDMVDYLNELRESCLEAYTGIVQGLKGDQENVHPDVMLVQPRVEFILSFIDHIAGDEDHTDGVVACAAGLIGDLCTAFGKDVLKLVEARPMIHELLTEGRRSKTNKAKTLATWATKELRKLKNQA

Letters – A = Vif-APOBEC3G blk; B = S-ASM inh; C = Eya2 phos inh; D = Rango-impB inh; E = Rango dissoc inh; F = Vif-A3F inh
> O=C(Nc1ccccc1O)N1c2ccccc2Sc2ccccc21
  A: -3%	B: 25µM*	C: 12%	D: 1%	E: -22%	F: 2%
> CCc1ccc(-c2nc3c(=O)n(C)c(=O)nc-3n(CC)n2)cc1
  A: -13%	B: x	C: x	D: x	E: x	F: x
> Cn1c(=O)c2ccccc2n2c(=S)[nH]nc12
  A: 0%	B: -1%	C: 0%	D: -1%	E: -15%	F: -3%
> O=c1[nH]c2ccccc2n2c(=S)[nH]nc12
  A: 5%	B: -3%	C: 3%	D: -5%	E: -16%	F: 22µM*
> O=c1[nH]c2ccccc2n2c(C(F)(F)F)nnc12
  A: -26%	B: -3%	C: -1%	D: 3%	E: 1%	F: 10µM*
> CN(C)c1ccc(/C=C2\C=Cc3ccccc32)c(Cl)c1
  A: -18%	B: x	C: x	D: x	E: x	F: x
> CC1=C(C(=O)OCc2ccc3nsnc3c2)N2C(=O)[C@@H](NC(=O)OCc3ccc4nsnc4c3)[C@H]2SC1
  A: 0%	B: x	C: x	D: x	E: x	F: x
> CC(=O)N/C(=C/c1ccccc1)c1sc2ccccc2[n+]1CCCCI
  A: -10%	B: x	C: x	D: x	E: x	F: x
> CCc1ccc(CNC(=O)c2cccc(-n3c(C)nc4cccnc43)c2)cc1
  A: 4%	B: x	C: x	D: x	E: x	F: 1%
> Cn1cc(/C=C2\SC(=S)N(NC(=O)c3ccccc3Cl)C2=O)c2ccccc21
  A: u	B: -24%	C: 4%	D: u	E: u	F: 11µM*

2 compounds picked at random from those above, as already listed:
Letters – A = Vif-APOBEC3G blk; B = S-ASM inh; C = Eya2 phos inh; D = Rango-impB inh; E = Rango dissoc inh; F = Vif-A3F inh
> O=C(Nc1ccccc1O)N1c2ccccc2Sc2ccccc21
  A: -3%	B: 25µM*	C: 12%	D: 1%	E: -22%	F: 2%
> O=c1[nH]c2ccccc2n2c(C(F)(F)F)nnc12
  A: -26%	B: -3%	C: -1%	D: 3%	E: 1%	F: 10µM*

Carrying on.
Letters – A = Vif-APOBEC3G blk; B = S-ASM inh; C = Eya2 phos inh; D = Rango-impB inh; E = Rango dissoc inh; F = Vif-A3F inh
> Cc1ccc(-c2nc3sc(C#N)c(N)n3c(=O)c2C#N)cc1
  A: -6%	B: -6%	C: -10%	D: u	E: u	F: 6.3µM*
> Nc1nc(N)c2c(OCc3ccc(C(F)(F)F)cc3)cccc2n1
  A: 5%	B: x	C: x	D: x	E: x	F: x
> C[C@@H]1[C@H](c2ccccc2)OCCS(=O)(=O)N1Cc1cccc(C(F)(F)F)c1
  A: -2%	B: x	C: x	D: x	E: x	F: x
> CC(=O)c1sc2ccccc2c1OC(=O)c1ccco1
  A: 0%	B: 28%	C: -8%[15.4 µM]	D: u	E: 26µM*	F: 3%
> Cc1cc(/C=C\c2ccc3cc(N(C)C)ccc3[n+]2C)c(C)n1-c1ccccc1
  A: 7.1µM*	B: u	C: -12%	D: 17%	E: 17%	F: 3.2µM*
> C[n+]1c(/C=C/c2ccc(O)cc2)ccc2ccccc21
  A: 1%	B: -11%	C: -10%	D: u	E: -2%	F: 9%
> CCOc1ccc(C(=O)COC(=O)Cc2n[nH]c(=O)c3ccccc23)cc1
  A: 8.9µM*	B: -2%	C: 15%	D: 2%	E: 0%	F: 8%
> COC(=O)C1[C@H]2SC(C)(C)C(C(=O)OC)N2C(=O)N1Cc1ccccc1 (stereo partly specified)
  A: -1%	B: x	C: x	D: x	E: x	F: x
> O=[N+]([O-])c1ccc(C=C2c3ccccc3-c3ccccc32)cc1
  A: 0%	B: x	C: x	D: x	E: x	F: x
> Cc1ccc(NC(=O)c2sc3nc(-c4cccs4)ccc3c2N)cc1F
  A: -10%	B: x	C: x	D: x	E: x	F: u
> Cc1csc(NC(=O)c2sc3nc(-c4cccs4)ccc3c2N)n1
  A: u	B: 17%	C: 28%	D: u	E: u	F: 22µM*
> Cc1noc(C)c1C(=O)OCC(=O)Nc1ccccc1SCC#N
  A: -19%	B: 8%	C: -1%	D: 8%	E: 0%	F: 22µM*
> N#CCSc1ccccc1NC(=O)COC(=O)CCNC(=O)c1ccc([N+](=O)[O-])cc1
  A: -15%	B: -1%	C: 6%	D: 0%	E: 16%	F: 22µM*
> O=C(CCNC(=O)c1ccc([N+](=O)[O-])cc1)Nc1ccccc1N1CCCC1
  A: 0%	B: -2%	C: 4%	D: 0%	E: -5%	F: -2%
> CCc1noc(C)c1C(=O)OCC(=O)Nc1ccccc1SC
  A: -2%	B: 4%	C: 15%	D: -1%	E: 7%	F: 7%
> CCOC(=O)c1c(NC(=O)c2cc3nc(-c4ccc(OC)cc4)cc(C(F)(F)F)n3n2)sc2c1CCC(C)C2 (stereo unspecified)
  A: -2%	B: x	C: x	D: x	E: x	F: -2%
> CCN1/C(=C/c2ccc3cc(C)cc(C)c3[n+]2CC)Sc2cc(C)ccc21
  A: u	B: -24%	C: u	D: u	E: u	F: 5%
> CCN1/C(=C/c2ccc3cccc(C)c3[n+]2CC)Sc2ccccc21
  A: u	B: -11%	C: u	D: 52µM*	E: 5%	F: -147%
> COc1ccc2oc(=O)c(C(=O)Nc3cccc(C)c3)cc2c1
  A: 2%	B: 0%	C: -6%	D: 7%	E: -1%	F: -10%
> Cc1cccc(NC(=O)c2cc3ccccc3oc2=O)c1
  A: 5%	B: 1%	C: -1%	D: u	E: 12µM*	F: 18%
> Cc1cc(=O)oc2ccc(OCc3ccccc3)cc12
  A: -11%	B: -9%	C: -3%	D: 4%	E: -18%	F: 0%
> Cc1cc(=O)oc2cc(O)cc(OCc3ccccc3)c12
  A: -15%	B: i	C: x	D: u	E: 8.2µM*	F: 1%
> CCC(=O)N1CCc2cc(S(=O)(=O)N(C)c3cccc(C)c3)ccc21
  A: 3%	B: x	C: x	D: x	E: x	F: 0%
> O=C1/C(=C/c2ccc([N+](=O)[O-])cc2)Oc2cc(O)ccc21
  A: -2%	B: -5%	C: -27%	D: 17%	E: -13%	F: 22µM*
> O=C1/C(=C/c2ccc(Br)cc2)Oc2cc(O)ccc21
  A: -14%	B: 11%	C: -2%	D: u	E: u	F: -9%
> CCc1ccc(/C=C2\Oc3cc(OS(C)(=O)=O)ccc3C2=O)cc1
  A: 0%	B: 7%	C: -7%	D: u	E: 8.2µM*	F: 7%
> CS(=O)(=O)Oc1ccc2c(c1)O/C(=C\c1cccc([N+](=O)[O-])c1)C2=O
  A: -1%	B: 21%	C: -7%	D: -1%	E: -7%	F: -6%
> CC(C)(C)n1ncc2c(=O)n(Cc3cccc(-c4ccccc4)c3)cnc21
  A: 0%	B: x	C: x	D: x	E: x	F: x
> CCN(CC)C(=O)N1CCN(/[N+]([O-])=N/Oc2ccc([N+](=O)[O-])cc2[N+](=O)[O-])CC1
  A: -8%	B: x	C: x	D: x	E: x	F: x
> C=Cc1ccc(N=Cc2c(O)ccc3ccccc23)cc1
  A: -8%	B: -4%	C: 8%	D: u	E: -2%	F: 1%
> Oc1ccc2ccccc2c1C=Nc1ccc(N2CCOCC2)cc1
  A: 2%	B: -19%	C: 9%	D: 37µM*	E: u	F: -2%
> COc1cccc(C2Nc3ccc4ccccc4c3C3=C2C(=O)CCC3)c1O (stereo unspecified)
  A: u	B: 28%	C: 10%	D: 2%	E: u	F: 11µM*
> COc1ccc(NC(=O)c2cccc(NC(=O)C(C)C)c2)c([N+](=O)[O-])c1
  A: 1%	B: -4%	C: -2%	D: 5%	E: 9%	F: -3%
> COc1ccc(NC(=O)c2ccc(NC(=O)C(C)C)cc2)c([N+](=O)[O-])c1
  A: -9%	B: x	C: -5%	D: 1%	E: -14%	F: 10µM*
> C[N+]1(CC(=O)c2cccc([N+](=O)[O-])c2)CCOCC1
  A: 2%	B: x	C: x	D: x	E: x	F: x

Records listed above marked active in Vif-APOBEC3G blk.
SMILES | Vif-APOBEC3G blk | S-ASM inh | Eya2 phos inh | Rango-impB inh | Rango dissoc inh
Cc1cc(/C=C\c2ccc3cc(N(C)C)ccc3[n+]2C)c(C)n1-c1ccccc1 | 7.1µM* | u | -12% | 17% | 17%
CCOc1ccc(C(=O)COC(=O)Cc2n[nH]c(=O)c3ccccc23)cc1 | 8.9µM* | -2% | 15% | 2% | 0%

Screening results deposited in PubChem BioAssay by National Center for Advancing Translational Sciences (NCATS).
